Values quoted from earlier work in publication PMC5970165, “Development and validation of a LC-MS/MS assay for pharmacokinetic studies of complement C5a receptor antagonists PMX53 and PMX205 in mice” (Scientific Reports, 2018).

Settings: rat, in vivo; cited from earlier work

Structure (SMILES): CC(=O)N[C@@H](Cc1ccccc1)C(=O)N[C@H]1CCCNC(=O)[C@H](CCCNC(=N)N)NC(=O)[C@H](Cc2c[nH]c3ccccc23)NC(=O)[C@@H](CC2CCCCC2)NC(=O)[C@@H]2CCCN2C1=O [PMX53, Ac-Phe-[Orn-Pro-dCha-Trp-Arg]]
- oral bioavailability: ~ 5%
